This is a selection; strong and weak results do not stand in their true shares. Some structures show a salt or complex split into parts, the way the source records it. Activity calls are given as the source filed them.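 Rule for the calls: active = inhibition of 40% or more at the single tested concentration; inactive = the rest.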
Assay: wild-type TIM10 yeast growth inhibition – luminescence, uHTS, counter-screen for tim10-1 yeast inhibitor project, primary screen (AID 463195);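 note: wild-type TIM10 isogenic control strain grown at permissive 25 °C; 0% = DMSO yeast wells and 100% = minimal medium wells without yeast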
Conditions: S. cerevisiae TIM10 strain growth, BacTiter-Glo luminescence, 24 h; at 10 µM; active compounds read high

| Compound | inhibition |
| --- | --- |
| CCN(CC)CCCOC(=O)C(O)(c1ccccc1)c1ccccc1 | inactive: -2.58% |
| CC(C)(C)c1ccc(OP(C)(=O)Nc2ccc(SC(F)(F)F)cc2)cc1 (stereo not given) | inactive: -9.16% |
| Cc1cccc(C)c1OP(C)(N)=O (stereo not given) | inactive: -0.189% |
| O=[N+]([O-])c1cc([N+](=O)[O-])c(Nc2cccnc2)c([N+](=O)[O-])c1 | inactive: 38.2% |
| COc1ccccc1OP(C)(=O)Nc1cc(Cl)ccc1C (stereo not given) | inactive: -1.73% |
| COc1ccc(OP(C)(=O)Nc2cccc(F)c2)cc1 (stereo not given) | inactive: -9.3% |
| Cc1cc(C)cc(OP(C)(N)=O)c1 (stereo not given) | inactive: 1.23% |
| CCOC(=O)c1ccc(NP(C)(=O)Oc2ccccc2)cc1 (stereo not given) | inactive: -3.24% |
| COc1ccccc1OP(C)(=O)Nc1ccc(C)cc1 (stereo not given) | inactive: 4.64% |
| Cc1ccc(NP(C)(=O)Oc2ccccc2)c(C)c1 (stereo not given) | inactive: 3.77% |
| COc1ccccc1OP(C)(=O)Nc1ccccc1 (stereo not given) | inactive: -11.5% |
| CP(=O)(Nc1ccccc1Br)Oc1ccccc1 (stereo not given) | inactive: -5.41% |
| CP(=S)(Nn1cnnc1)Oc1ccccc1 (stereo not given) | inactive: 1.13% |
| CCc1ccc(OP(C)(=O)N2CCN(c3ccc([N+](=O)[O-])cc3)CC2)cc1 (stereo not given) | inactive: 32.8% |
| CP(=O)(NC(=O)Nc1ccccc1)Oc1ccccc1 (stereo not given) | inactive: -21.3% |
| Cc1cc(C)cc(OP(C)(=O)Nc2ccc(SC(F)(F)F)cc2)c1 (stereo not given) | inactive: 4.95% |
| CP(=O)(Nc1ccc(SC(F)(F)F)cc1)Oc1ccc(Cl)cc1 (stereo not given) | inactive: 22% |
| Cc1cccc(C)c1OP(C)(=O)Nc1ccc(SC(F)(F)F)cc1 (stereo not given) | inactive: 14.5% |
| CP(=O)(Oc1ccccc1)OC(c1ccccc1)C(F)(F)F (stereo not given) | inactive: 2.05% |
| CP(=O)(Nc1ccccn1)Oc1ccc(Cl)cc1 (stereo not given) | inactive: -12.1% |
| CCOP(C)(=S)SCC(=O)NC(C)C(=O)O (stereo not given) | inactive: -1.67% |
| O=[N+]([O-])c1cc([N+](=O)[O-])c(O)c([N+](=O)[O-])c1.c1ccc(Oc2ccncc2)cc1 | inactive: 8.56% |
| CCOC(=O)c1ccc(NP(C)(=O)Oc2ccc(OC)cc2)cc1 (stereo not given) | inactive: -6.68% |
| O=[N+]([O-])c1cc([N+](=O)[O-])c(-n2nnc3ccccc32)c([N+](=O)[O-])c1 | inactive: 14.1% |
| Cc1nc2ccc3ccccc3c2s1.O=[N+]([O-])c1cc([N+](=O)[O-])c(O)c([N+](=O)[O-])c1 | inactive: -8.49% |
| O=[N+]([O-])c1cc([N+](=O)[O-])c(-c2cnn(-c3ccccc3)c2)c([N+](=O)[O-])c1 | active: 74.1% |
| O=[N+]([O-])c1cc([N+](=O)[O-])c(Nc2nnnn2CCO)c([N+](=O)[O-])c1 | inactive: 8.9% |
| CC1=C2N=C(C=C3N=C(C(C)=C4[N-][C@@](C)([C@@H]5N=C1[C@](C)(CCC(=O)NC[C@@H](C)OP(=O)([O-])O[C@H]1[C@@H](O)[C@@H](n6cnc7cc(C)c(C)cc76)O[C@@H]1CO)[C@H]5CC(N)=O)[C@@](C)(CC(N)=O)[C@@H]4CCC(N)=O)[C@@](C)(CC(N)=O)[C@@H]3CCC(N)=O)C(C)(C)[C@@H]2CCC(N)=O.[C-]#N.[Co+3] | inactive: 13.9% |

| Compound | inhibition |
| --- | --- |
| CCOC(=O)C(CC)C1=NC(C)(C)Cc2ccccc21.O=[N+]([O-])c1cc([N+](=O)[O-])c(O)c([N+](=O)[O-])c1 (stereo not given) | inactive: -12.8% |
| CP(=O)(Nc1ccc(SC(F)(F)F)cc1)Oc1ccccc1 (stereo not given) | inactive: 2.33% |
| CCCOc1ccc(NP(C)(=O)Oc2ccc(Cl)cc2)cc1 (stereo not given) | inactive: 23.7% |
| CN1CCCCC1COC(=O)C1(O)c2ccccc2CCc2ccccc21 (stereo not given) | inactive: -0.405% |
| COc1ccccc1OP(C)(=O)Nc1c(C)cccc1C (stereo not given) | inactive: 4.68% |
| O=C(O)c1cccc(Nc2c([N+](=O)[O-])cc([N+](=O)[O-])cc2[N+](=O)[O-])c1 | inactive: -9.31% |
| CC1=NCCc2c1[nH]c1ccccc21.O=[N+]([O-])c1cc([N+](=O)[O-])c(O)c([N+](=O)[O-])c1 | inactive: -4.13% |
| Cc1cc(C)cc(OP(C)(=O)Nc2ccc(C)cc2C)c1 (stereo not given) | inactive: -20.7% |
| CCOC(=O)c1ccc(NP(C)(=O)Oc2cc(C)cc(C)c2)cc1 (stereo not given) | inactive: 0.297% |
| COc1ccccc1OP(C)(=O)Nc1cccc(Br)c1 (stereo not given) | inactive: 4.59% |
| CP(=O)(Nc1cccc(Br)c1)Oc1ccccc1 (stereo not given) | inactive: 5.98% |
| Cc1cc(C)cc(OP(C)(=O)Nc2ccccn2)c1 (stereo not given) | inactive: 16.6% |
| Cc1ccc(C)c(NP(C)(=O)Oc2ccccc2)c1 (stereo not given) | inactive: -2.94% |
| CC(C)c1ccc(OP(C)(=O)Nc2ccc(SC(F)(F)F)cc2)cc1 (stereo not given) | inactive: -8.17% |
| CP(=O)(Nc1ccccc1F)Oc1ccccc1 (stereo not given) | inactive: 14.5% |
| COc1ccc2c(c1O)-c1c(O)c(OC)cc3c1[C@H](C2)[N+](C)(C)CC3.O=[N+]([O-])c1cc([N+](=O)[O-])c([O-])c([N+](=O)[O-])c1[O-] | inactive: 5.32% |
| O=C(OCCN1CCN(CCOCc2ccccc2)CC1)C(O)(c1ccccc1)c1ccccc1 | inactive: 4.93% |
| O=C(OC1CN2CCC1CC2)c1ccc([N+](=O)[O-])cc1 (stereo not given) | inactive: -206% |
| COc1ccc(OP(C)(=O)Nc2ccc(SC(F)(F)F)cc2)cc1 (stereo not given) | inactive: 28.6% |
| CCOC(=O)c1ccc(NP(C)(=O)Oc2ccc(F)cc2)cc1 (stereo not given) | inactive: 7.23% |
| CCCCCOc1ccc(NP(C)(=O)Oc2ccc(Cl)cc2Cl)cc1 (stereo not given) | inactive: 18.5% |
| O=[N+]([O-])c1cc([N+](=O)[O-])c(OC2CCCCC2O)c([N+](=O)[O-])c1 (stereo not given) | inactive: 3.7% |
| CP(=O)(Nc1ccccc1)Oc1ccc(F)cc1 (stereo not given) | inactive: -4.69% |
| CCN(CC)CCCOC(=O)C(O)(c1ccccc1)C1CCCCC1 (stereo not given) | inactive: -3.38% |
| COc1ccc(NP(C)(=O)Oc2ccccc2OC)cc1 (stereo not given) | inactive: 18.6% |
| CN(C)CCOC(=O)C(O)(c1ccccc1)C1CCCCC1 (stereo not given) | inactive: -21.6% |
| COc1ccc(OP(C)(=O)Nc2cccc(Br)c2)cc1 (stereo not given) | inactive: -0.604% |
